IL2 activator = activates IL-2 in a cell-based reporter assay. IL-2 activation reporter assay, cell-based qHTS; stimulated with anti-CD3/CD4/CD28 beads; in transgenic mouse T cells. activation, % (series mostly up to about 46 µM). 360,000 compounds, 0.065% hits. AID 652025; in the data active = activation above about 50%; inconclusive = mostly about 30% to 49%; also: 0% is about no effect
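Unstimulated transgenic mouse T cells, 750 per well, received compound and, after 60 minutes, anti-CD3/anti-CD4 bead plus anti-CD28 stimulation. EGFP and DsRed were quantified after 18 hours.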
RXFP1 ag = agonists of human relaxin receptor RXFP1. HEK293T-RXFP1 cAMP TR-FRET, 30 min; response scale: percent of porcine relaxin response, buffer zero. Potency, µM (highest dose often 57.5 µM), inactives show at the top dose activation, actives largely listed as activators. 370,000 compounds, 0.3% hits. AID 2676; also: potency is read from the fitted curve at half-maximal effect; % is scaled to controls: 0 for no effect and ±100 for the full control effect; nearly all actives have a fitted effect of over 60% in size
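Agonist response is measured as cAMP accumulation in an RXFP1-transfected HEK293T line under PDE4 inhibition. Values are scaled between buffer-only and 29 nM porcine relaxin, and EC50s come from standard Hill equation fits.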
TCR act = T cell receptor activation | 330,000 tested, under 10 active | Potency, µM (top dose mostly 9.22 µM), for the others: top-dose activation of IL-2 secretion, usual class: activators | primary human leukocytes, anti-CD3, IL-2 HTRF, 48 h | AID 504894; also: % of control where 0% means no effect
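TCR engagement came from a-CD3 beads alone, with compounds added to primary human leukocytes for 48 hr. Secreted IL-2 bridged europium cryptate- and d2-labelled anti-IL-2 antibodies, giving FRET emission at 665nm after 320nm excitation.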
miR-21 reporter = miR-21 reporter, rising signal; HeLa miR-21 FLuc reporter, luciferase, 48 h; Potency, µM (doses to about 38.3 µM), for inactives: at the highest dose reporter change, positive = more light; 340,000 tested, under 10 active; AID 2288; active = well fitted rising curve with a large enough effect; inconclusive = small, poorly fitted or top-dose-only effect; inactive = no such curve, though single readings can be large or run the other way;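 further: % of control where 0% means no effect; miR-21 action dims this reporter so a rising signal means less miR-21 action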
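HeLa cells endogenously expressing miR-21, stably carrying CMV-driven firefly luciferase with a downstream miR-21 binding site, 2000 cells/well. Titrations up to approximately 40 uM, 48 hours; luciferase luminescence read.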
RXFP1 antagonist = blocks the human relaxin receptor RXFP1 | HEK293-RXFP1, relaxin-stimulated cAMP HTRF, 30 min; hits give low values | activity change, negative = inhibition, % at 57.5 µM | 350,000 compounds, 0.59% hits | AID 1259400;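 active = activity change of -60% or lower, but not beyond a set lower limit; inconclusive = change between -60% and -40%, or beyond the set limit; inactive = change above -40%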; also: % is scaled to controls: 0 for no effect and ±100 for the full control effect
PINK1 expr mod = changes PINK1 expression; 410,000 compounds, 0.2% hits; Potency, µM (titrated, usually from 76.6 µM), for the others: at the top dose activation (PINK1 increase), actives largely listed as activators; PINK1 immunofluorescence, high-content cytometry, 24 h; active = well fitted activation curve with a large enough effect; inconclusive = small, poorly fitted or top-dose-only effect; cell line not stated here; also: potency is read from the fitted curve at half-maximal effect; % of control where 0% means no effect; nearly all actives have a fitted effect of over 65% in size
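Cells are seeded, rested 12 hours, then given compound at five concentrations or DMSO for 24 hours. After fixation, blocking and antibody staining, PINK1 amount and mitochondrial localization are scored; CCCP serves as control.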
* = called active by the depositor; ? = inconclusive; / = no result; ! = not active in a repeat; [ ] = another dose, or the depositor's remark. Rows were chosen to be rich in hits. Some 0.78% of all compounds tested hit in one or more screens of this group. Unless noted, calls follow the shape of the dose curve; as a rule, active = well fitted curve in the direction sought with a large enough effect; inconclusive = small, poorly fitted or top-dose-only effect, or another doubt; inactive = no such curve, though single readings can be large; an effect the other way counts as inactive or inconclusive.

molecule | miR-21 reporter | PINK1 expr mod | RXFP1 antagonist | TCR act | RXFP1 ag | IL2 activator
COc1ccccc1N1CCN(Cc2cc(Br)c(O)c3ncccc23)CC1 | ? | ? | -92* | 5% | -2% | -5
COc1c2c(nc3occc13)C(CC=C(C)C)(OC)C(=O)C=C2 (stereo not given) | 1% | -1% | -62* | 6% | 0% | 2
COc1ccccc1Nc1nnc(SCC(=O)NC(=O)Nc2ccc3c(c2)OCCO3)s1 | -22% | 11µM* | -5 | 4%[46.1 µM] | -2% | -1
O=C(CC1SC(=O)N(c2ccccc2)C1=O)Nc1ccc(Cl)cc1 (stereo not given) | -36% | 1% | -70* | 0% | 1% | 4
CCn1c(CNc2cccc(C(F)(F)F)c2)n[nH]c1=S | 1% | 0% | -110* | -1% | -1% | 0
O=C1/C(=C/c2ccc(O)cc2)SC(=S)N1Cc1cccnc1 | 0% | 35µM* | -8 | 3%[46.1 µM] | 1% | 0
O=C1/C(=C/c2ccncc2)SC(=S)N1Cc1ccccc1 | 26% | -1% | -99* | 1% | -1% | -7
Cc1cc(OCCOCC[N+](C)(C)Cc2ccccc2)ccc1C(C)(C)CC(C)(C)C | / | / | -29 | / | / | /
COc1cc(CN2CCCC(n3cc(C(=O)N4CCCCC4)nn3)C2)cc2c1OCO2 (stereo not given) | / | 1% | / | / | / | /
O=C(CCc1nnc2ccc(N3CCC4(CC3)OCCO4)nn12)NCc1ccc(F)cc1 | -3% | 7% | 22 | -12% | 16µM* | 0
Cn1c(SCc2ccc(C(C)(C)C)cc2)nnc1C1COc2ccccc2O1 (stereo not given) | 5% | 8% | -69* | -4% | -1% | -1
O=C(NCCCCc1ccccc1)c1nn(-c2ccccc2F)nc1CO | 14% | 0% | -66* | / | -5% | /
O=C(NCCCc1ccccc1)c1nn(-c2ccccc2F)nc1CO | 25% | -1% | -25 | / | -4% | /
O=C(NC1CCC(O)CC1)c1ccc(-c2ccc(Cl)cc2)o1 (stereo not given) | / | -2% | -7 | -1% | 0% | -1
O=C(NNC(=O)c1ccccc1F)c1ccc(-c2ccc(Cl)cc2)o1 | / | 3% | -87* | -88% | 0% | 0
COc1ccccc1C(=O)N(Cc1cc2cccc(C)c2nc1N1CCC(O)CC1)C1CC1 | / | 0% | / | / | / | /

6 records drawn at random from those above, as already listed:
molecule | miR-21 reporter | PINK1 expr mod | RXFP1 antagonist | TCR act | RXFP1 ag | IL2 activator
O=C(NCCCc1ccccc1)c1nn(-c2ccccc2F)nc1CO | 25% | -1% | -25 | / | -4% | /
O=C(NC1CCC(O)CC1)c1ccc(-c2ccc(Cl)cc2)o1 (stereo not given) | / | -2% | -7 | -1% | 0% | -1
O=C(CCc1nnc2ccc(N3CCC4(CC3)OCCO4)nn12)NCc1ccc(F)cc1 | -3% | 7% | 22 | -12% | 16µM* | 0
O=C(NNC(=O)c1ccccc1F)c1ccc(-c2ccc(Cl)cc2)o1 | / | 3% | -87* | -88% | 0% | 0
O=C(NCCCCc1ccccc1)c1nn(-c2ccccc2F)nc1CO | 14% | 0% | -66* | / | -5% | /
COc1ccccc1C(=O)N(Cc1cc2cccc(C)c2nc1N1CCC(O)CC1)C1CC1 | / | 0% | / | / | / | /

New compounds follow.
molecule | miR-21 reporter | PINK1 expr mod | RXFP1 antagonist | TCR act | RXFP1 ag | IL2 activator
CCc1sc(C(=O)Nc2ccc(N3CCOCC3)cc2)cc1C | / | 2% | -8 | 2% | / | 1
CCc1sc(C(=O)Nc2ccc3c(c2)OCO3)cc1C | / | 0% | -63* | 0% | / | 1
Cc1nnc(N2C(=O)C(O)=C(C(=O)c3ccco3)C2c2ccc(F)cc2)s1 (stereo not given) | 10% | 0% | / | 5% | ? | -1
CSc1ccc(C2C(C(=O)c3ccco3)=C(O)C(=O)N2c2nnc(SC)s2)cc1 (stereo not given) | -59% | 1% | -2 | -2% | 16µM* | 0
CN(CC(=O)Nc1ccc(Cl)c(Cl)c1)C1CCCCC1 | 5% | 40µM* | -11 | 3% | 0% | 1
CCCCCCCn1c2c(c(=N)c3ccccc31)CCC2 | ? | 20µM* | -24 | 5% | -3% | -3
O=C(NCc1nnc2n1CCN(C(=O)/C=C/c1ccccc1)CC2)c1cccc(F)c1 | / | 0% | / | / | / | /
Cc1cccc(C)c1NC(=O)c1nc(S(=O)(=O)Cc2ccccc2)ncc1Cl | ? | -2% | -70* | 5% | -2% | -2
Cc1cccc(CS(=O)(=O)c2ncc(Cl)c(C(=O)NCc3ccccc3)n2)c1 | ? | 1% | -62*! | 2% | -1% | -1
Cc1cccc(CS(=O)(=O)c2ncc(Cl)c(C(=O)Nc3c(C)cccc3C)n2)c1 | ? | -1% | -96* | -3% | 1% | -4
Cc1cccc(C)c1NC(=O)c1nc(S(=O)(=O)Cc2ccccc2F)ncc1Cl | / | 1% | / | / | / | /
O=C(O)c1ccc2c(c1)C(=O)N([C@@H](Cc1ccc(O)cc1)C(=O)O)C2=O | / | / | / | / | 2% | /
O=C(O)C(Cc1ccc(O)cc1)N1C(=O)c2c(Cl)c(Cl)c(Cl)c(Cl)c2C1=O (stereo not given) | / | -1% | -62* | 1% | / | 0
Cc1ccc2ccc(Cl)cc2n1 | / | / | 10 | / | / | /
CO/N=C/c1ccc(Sc2ccccc2)c([N+](=O)[O-])c1 | -14% | -1% | -12 | 11% | 0% | -1
O=[N+]([O-])c1cc(/C=N/O)ccc1Sc1ccccc1 | -35% | 1% | -60* | 1% | 1% | 0
Cc1ccn2c(=O)c(C(=O)NCCN3CCOCC3)c(O)nc2c1 | 0% | 1% | 18 | -7% | 1% | -1
O=C(NCCN1CCOCC1)c1c(O)nc2ccccn2c1=O | -1% | -1% | -91* | -6% | 17% | -1
O=C(N/N=C/C(Br)=C/c1ccccc1)c1cc(-c2ccco2)[nH]n1 | 9% | 2% | -81* | 1% | 0% | -1
OCCCNCc1cc2ccc(F)cc2nc1N1CCN(c2cccc(Cl)c2)CC1 | / | 2% | / | / | / | /
N#CC1c2ccccc2C=CN1C(=O)N(c1ccccc1)c1ccccc1 (stereo not given) | / | -2% | -94* | 0% | / | -1
Cn1c(-c2ccncc2)nc2cc(C(=O)N3CCCC3c3nccs3)cc(NC(=O)C3CCC3)c21 (stereo not given) | / | 0% | / | / | / | /
O=C(C=C=Nc1ccccc1)C(=O)N=C=Cc1ccccc1 | ? | 2% | -61* | -2% | -2% | -4
Cc1cc(C(=O)NCc2nnc3n2CCN(Cc2ccc4c(c2)Cc2ccccc2-4)CC3)c(C)o1 | / | 1% | / | / | / | /
COc1ccc(N/C=C2\C(=O)CCc3c2oc2cc(Cl)c(O)c(Cl)c32)cc1 | -1% | 12% | 9 | 9% | 1% | 268*
O=C(c1cc(-c2ccccc2)on1)N1CCOc2ccc(CN3CCN(c4ccccn4)CC3)cc2C1 | / | 0% | / | / | / | /
CC(C)C(=O)OCc1cccc(OC(=O)[C@@H]2N3C(=O)[C@@H](NC(=O)Cc4ccccc4)[C@H]3SC2(C)C)c1 | / | / | -18 | / | / | /
COc1cc(=O)n2c(c1C(=O)N(C)Cc1nonc1C)CCN(Cc1cc(C)c(C)cc1C)CC2 | / | 1% | / | / | / | /
N#CC1=C(N)N2C(=C(C#N)C1c1ccc(Br)cc1)Nc1ccccc12 (stereo not given) | 5% | ? | -10 | 7%[46.1 µM] | 2% | -2
N#CC1=C(N)N2C(=C(C#N)C1c1cccc(Br)c1)Nc1ccccc12 (stereo not given) | -7% | 3.2µM* | -15 | -8%[46.1 µM] | 4% | 23
